# Assay: Chemical profiling of BHGZD in sera (UFLC-Q-TOF-MS/MS)
# Conditions: 30 min after the treatment of BHGZD
substance,measurement,value
isoliquiritin apioside,quantitative detection in sera after the treatment of BHGZD,detected

# Source: article PMC9253268 (Frontiers in Immunology, 2022)
